Molecular target: T1, Solute carrier family 2, facilitated glucose transporter member 1 (Homo sapiens) (UniProt P11166)
T1 sequence (whole entry): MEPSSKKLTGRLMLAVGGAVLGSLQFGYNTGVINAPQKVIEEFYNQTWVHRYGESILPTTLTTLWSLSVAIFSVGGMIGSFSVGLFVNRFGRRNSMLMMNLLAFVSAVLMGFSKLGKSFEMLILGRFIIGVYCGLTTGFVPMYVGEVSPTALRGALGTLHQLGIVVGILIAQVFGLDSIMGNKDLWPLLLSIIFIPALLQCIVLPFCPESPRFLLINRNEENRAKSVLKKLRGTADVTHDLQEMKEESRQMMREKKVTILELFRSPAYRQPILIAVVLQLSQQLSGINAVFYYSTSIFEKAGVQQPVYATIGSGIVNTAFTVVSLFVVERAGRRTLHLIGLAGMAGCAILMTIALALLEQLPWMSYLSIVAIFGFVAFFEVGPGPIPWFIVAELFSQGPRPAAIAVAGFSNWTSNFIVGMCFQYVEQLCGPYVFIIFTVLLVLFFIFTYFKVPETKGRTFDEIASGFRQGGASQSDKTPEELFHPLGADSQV
Settings: iPSC-CM, dose 20.0 nM, time 30.0 min

Cc1c(NC(=O)c2cc(C(N)=O)nc3cc(F)ccc23)c(C(F)(F)F)nn1Cc1ccc(C#N)cc1 [BAY-876]
inhibition: 50%
